For 15 compounds, Ratio Ki results are on record in ChEMBL document CHEMBL5543159, “Discovery of an Ortho-Substituted N-Cyclopropylmethyl-7α-phenyl-6,14-endoethano-tetrahydronorthebaine Derivative as a Selective and Potent Kappa Opioid Receptor Agonist with Subsided Sedative Effect” (2024).

Molecules are shown by their SMILES. Some results are limits rather than exact numbers.

One experiment can be described thus: Selectivity ratio of Ki for displacement of [3H]-DAMGO from rat MOR receptor to Ki for displacement of [3H]U69593 from human KOR. A general note: Loss of bound radioactivity is the signal in a displacement assay; it reports binding, not function.
With `COc1ccc2c3c1O[C@H]1[C@@]4(OC)CC[C@@]5(C[C@@H]4c4ccccc4N(C)Cc4ccc(C(F)(F)F)cc4)[C@@H](C2)N(CC2CC2)CC[C@]315`, the Ratio Ki stood at 3.2.

Take `COc1ccc2c3c1O[C@H]1[C@@]4(OC)CC[C@@]5(C[C@@H]4c4ccccc4NC(=O)c4ccc6[nH]ccc6c4)[C@@H](C2)N(CC2CC2)CC[C@]315`: the Ratio Ki is over 4.8. Same read-out and setting: the result for `COc1ccc2c3c1O[C@H]1[C@@]4(OC)CC[C@@]5(C[C@@H]4c4ccccc4NCC4CCN(C(=O)OC(C)(C)C)CC4)[C@@H](C2)N(CC2CC2)CC[C@]315` reads over 2.8.

Another experiment in a line: Selectivity ratio of Ki for displacement of [3H]DPDPE from rat DOR to Ki for displacement of [3H]U69593 from human KOR.
Consider `COc1ccc2c3c1O[C@H]1[C@@]4(OC)CC[C@@]5(C[C@@H]4c4ccccc4NCC4CC4)[C@@H](C2)N(CC2CC2)CC[C@]315`, for which the Ratio Ki was over 22.9. `COc1ccc2c3c1O[C@H]1[C@@]4(OC)CC[C@@]5(C[C@@H]4c4ccccc4NC(=O)OCc4ccccc4)[C@@H](C2)N(CC2CC2)CC[C@]315`: the Ratio Ki is 22.5. Same read-out and setting: the result for `COc1ccc2c3c1O[C@H]1[C@@]4(OC)CC[C@@]5(C[C@@H]4c4ccccc4N(C)Cc4ccc(C(F)(F)F)cc4)[C@@H](C2)N(CC2CC2)CC[C@]315` reads 19.7. The same measure, in the same setting: the result for `COc1ccc2c3c1O[C@H]1[C@@]4(OC)CC[C@@]5(C[C@@H]4c4ccccc4NC(=O)c4ccc(C)c(C)c4)[C@@H](C2)N(CC2CC2)CC[C@]315` reads over 93.5; that for `COc1ccc2c3c1O[C@H]1[C@@]4(OC)CC[C@@]5(C[C@@H]4c4ccccc4NC(=O)Cc4ccc(C)c(C)c4)[C@@H](C2)N(CC2CC2)CC[C@]315`, under 0.5; that for `COc1ccc(CNc2ccccc2[C@H]2C[C@@]34CC[C@]2(OC)[C@@H]2Oc5c(OC)ccc6c5[C@@]23CCN(CC2CC2)[C@@H]4C6)cc1`, over 40. On the same count and under the same terms, the result for `COc1ccc2c3c1O[C@H]1[C@@]4(OC)CC[C@@]5(C[C@@H]4c4ccccc4NCC4CCCC4)[C@@H](C2)N(CC2CC2)CC[C@]315` reads over 38.3; that for `COc1ccc2c3c1O[C@H]1[C@@]4(OC)CC[C@@]5(C[C@@H]4c4ccccc4N)[C@@H](C2)N(CC2CC2)CC[C@]315`, 70.4. `COc1ccc2c3c1O[C@H]1[C@@]4(OC)CC[C@@]5(C[C@@H]4c4ccccc4NC(=O)c4ccc6[nH]ccc6c4)[C@@H](C2)N(CC2CC2)CC[C@]315`: the Ratio Ki is over 4.8. Still for that read-out and setting: the result for `COc1ccc2c3c1O[C@H]1[C@@]4(OC)CC[C@@]5(C[C@@H]4c4ccccc4NC(=O)c4ccccc4)[C@@H](C2)N(CC2CC2)CC[C@]315` reads over 265.

Regarding `COc1ccc2c3c1O[C@H]1[C@@]4(OC)CC[C@@]5(C[C@@H]4c4ccccc4NCC4CCN(C(=O)OC(C)(C)C)CC4)[C@@H](C2)N(CC2CC2)CC[C@]315`, the Ratio Ki was over 2.8. On the same count and under the same terms, the result for `COc1ccc2c3c1O[C@H]1[C@@]4(OC)CC[C@@]5(C[C@@H]4c4ccccc4NC(=O)c4ccc(Cl)c(Cl)c4)[C@@H](C2)N(CC2CC2)CC[C@]315` reads 1.5. Still for that read-out and setting: the result for `CNc1ccccc1[C@H]1C[C@@]23CC[C@]1(OC)[C@@H]1Oc4c(OC)ccc5c4[C@@]12CCN(CC1CC1)[C@@H]3C5` reads 3.1; that for `COc1ccc2c3c1O[C@H]1[C@@]4(OC)CC[C@@]5(C[C@@H]4c4ccccc4NC(=O)C(C)(C)C)[C@@H](C2)N(CC2CC2)CC[C@]315`, under 0.1. With `COc1ccc2c3c1O[C@H]1[C@@]4(OC)CC[C@@]5(C[C@@H]4c4ccccc4NC(=O)c4ccccc4O)[C@@H](C2)N(CC2CC2)CC[C@]315`, the Ratio Ki was 5.3.
